NALP1 yeast inh: inhibitors of NALP1 inflammasome in yeast; actives 0.61% (n = 280,000); S. cerevisiae NALP1/ASC/caspase-1 growth, X-gal OD620, 72 h; AID 2071; inhibition, % at 10 µM; in the data active = inhibition mostly above about 24%, no sharp cut-off; inactive = mostly below about 32%
ALR inh: inhibitors of human ALR sulfhydryl oxidase, primary screen, biochemical, H2O2 detection, HRP-luminol luminescence, single point | AID 485317, 2010 | inhibition, % (test concentration not listed) | purified ALR, DTT oxidation | FAD-linked sulfhydryl oxidase ALR (Homo sapiens), P55789 | hit rate 3.8% among 290,000;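 active = mean and each replicate at 75% or more; inconclusive = only one of the two met; inactive = neither met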;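 also: stock transfer was 7.5 nL into about 7.5 µL; 0% = neutral wells and 100% = wells with inactivated enzyme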
HDAC3 inh: blocks human histone deacetylase 3. O15379. recombinant HDAC3, fluorogenic peptide/trypsin coupled, fluorescence. inhibition, % at 8.3 µM. actives 0.15% (n = 320,000); in the data active = inhibition above about 26%, passing the limit was not always enough; inconclusive = no clear call, values can overlap the other calls
MC4R antagonist: human MC4R antagonism in cAMP assay; inhibition, % at 6.5 µM; P32245; MC4R-expressing cells, MTII-stimulated cAMP, LANCE TR-FRET; AID 540295; actives 0.48% (n = 360,000);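 active = inhibition above its plate's cutoff, the mean of tested wells on that plate plus 3 SD, cut at about 29% in these data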;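 note: 0% = Melanotan II alone and 100% = Melanotan II plus saturating MCL0020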
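Assay system: human MC4R-expressing U2OS cells; reagent: Melanotan II stimulation of cells; dosing: 6.5 µM single dose; timing: compound 30 min, challenge 1 h, detection 1 h; signal: TR-FRET cAMP assay; replicates: one well per compound, no replicates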
MC4R ag barr: activates human MC4R beta-arrestin recruitment; U2OS MC4R beta-arrestin complementation, luminescence; percent of melanotan II response, DMSO zero; AID 540308; activation, % at 8.9 µM; actives 0.98% (n = 360,000); P32245;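 active = activation above a per-plate cutoff, the mean activation of sample wells on that plate plus 3 SD, cut at about 8% in these data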
Yeast UUG start: modulators of start codon recognition fidelity in yeast. S. cerevisiae UUG-firefly luciferase reporter, luminescence/redox ratio. activity score, % at 18.7 µM. 0.13% of 350,000 active. AID 602363;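 active = replicate mean at a twofold rise or more, about +100% in these data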;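 also: firefly luciferase made from a UUG start codon reports start codon fidelity; reporter light over untreated wells divided by growth signal over untreated wells; some hits fall short of that in this replicate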
* hit, by the source's call. This is a sample that favours compounds with a hit; in the whole collection about 4.2% have one here.

Screening CCn1c(Cc2ccccc2)nnc1SCC(=O)Nc1ccc(OC)cc1 returned NALP1 yeast inh 4, ALR inh -1, HDAC3 inh -9, MC4R antagonist 8, MC4R ag barr 0 and Yeast UUG start -23.
Screening CCn1c(Cc2ccccc2)nnc1SCC(=O)Nc1ccc(N)cc1 returned NALP1 yeast inh -6, ALR inh 87*, HDAC3 inh -2, MC4R antagonist 5, MC4R ag barr -2 and Yeast UUG start -11.
Screening CCn1c(Cc2ccccc2)nnc1SCC(=O)Nc1ccccc1N1CCOCC1 returned NALP1 yeast inh -1, ALR inh -8, HDAC3 inh 3, MC4R antagonist 6, MC4R ag barr -1 and Yeast UUG start -13.
`CCn1c(CC(=O)Nc2ccc(C)cc2)nnc1SCC(=O)N1CCN(c2ccccc2)CC1` gave NALP1 yeast inh 2, ALR inh 89*, HDAC3 inh 1, MC4R antagonist 5, MC4R ag barr 1 and Yeast UUG start -5.
`COC(=O)CSc1nnc(Cc2ccccc2)n1-c1ccc(C)cc1` gave NALP1 yeast inh 1, ALR inh -2, HDAC3 inh 3, MC4R antagonist 6, MC4R ag barr -1 and Yeast UUG start 4.
Screening O=C(CSc1nnc(Cc2ccccc2)n1-c1ccccc1)NNC(=O)Cc1ccccc1 returned NALP1 yeast inh 25, ALR inh 98*, HDAC3 inh -1, MC4R antagonist 10, MC4R ag barr 1 and Yeast UUG start 14.
Screening CCn1c(Cc2ccccc2)nnc1SCC(=O)Nc1ccccc1F returned NALP1 yeast inh 33*, ALR inh -1, HDAC3 inh -2, MC4R antagonist 14 and MC4R ag barr -2.
`C[C@H](CO)N1C[C@H](C)[C@@H](CN(C)Cc2ccccc2)Oc2ccc(NC(=O)Cc3cn(C)c4ccccc34)cc2CC1=O` gave Yeast UUG start 12.
COc1ccc(S(=O)(=O)N(C)C[C@@H]2OCCCC[C@H](C)Oc3ccc(NC(=O)Nc4c(C)noc4C)cc3C(=O)N([C@@H](C)CO)C[C@@H]2C)cc1 was read as Yeast UUG start 17.
CNC[C@H]1OCCCC[C@@H](C)Oc2ccc(NS(=O)(=O)c3cn(C)cn3)cc2C(=O)N([C@H](C)CO)C[C@H]1C was read as Yeast UUG start -3.
`O=C(c1ccc2c(c1)OCO2)N1CCCCN2[C@H](CO)[C@@H](c3ccc(-c4ccccc4)cc3)[C@@H]2C1` gave Yeast UUG start 6.
`O=[N+]([O-])c1cccc(S(=O)(=O)N/N=C/c2ccc(O)cc2)c1` gave NALP1 yeast inh -8, ALR inh 93*, HDAC3 inh 9, MC4R antagonist 2 and MC4R ag barr 0.
Screening COc1cc(/C=N/NS(=O)(=O)c2ccc(C)c([N+](=O)[O-])c2)ccc1O returned NALP1 yeast inh -18, ALR inh 99*, HDAC3 inh 1, MC4R antagonist 12 and MC4R ag barr 0.
COc1ccc(-n2c(O)c(C=Nc3ccccc3)c3ccccc3c2=O)cc1OC was read as NALP1 yeast inh 15, HDAC3 inh -5, MC4R antagonist 1, MC4R ag barr 0 and Yeast UUG start 2.
`COc1ccc(-n2c(O)c(/C=N/NS(=O)(=O)c3ccc(C)c([N+](=O)[O-])c3)c3ccccc3c2=O)cc1OC` gave NALP1 yeast inh -6, ALR inh 97*, HDAC3 inh 5, MC4R antagonist 8 and MC4R ag barr -2.

2 compounds drawn at random from those above, as already listed:
Screening COc1cc(/C=N/NS(=O)(=O)c2ccc(C)c([N+](=O)[O-])c2)ccc1O returned NALP1 yeast inh -18, ALR inh 99*, HDAC3 inh 1, MC4R antagonist 12 and MC4R ag barr 0.
Screening CCn1c(Cc2ccccc2)nnc1SCC(=O)Nc1ccc(OC)cc1 returned NALP1 yeast inh 4, ALR inh -1, HDAC3 inh -9, MC4R antagonist 8, MC4R ag barr 0 and Yeast UUG start -23.

The listing picks up, repeating the 2 entries before the break.
COc1ccc(-n2c(O)c(C=Nc3ccccc3)c3ccccc3c2=O)cc1OC was read as NALP1 yeast inh 15, HDAC3 inh -5, MC4R antagonist 1, MC4R ag barr 0 and Yeast UUG start 2.
`COc1ccc(-n2c(O)c(/C=N/NS(=O)(=O)c3ccc(C)c([N+](=O)[O-])c3)c3ccccc3c2=O)cc1OC` gave NALP1 yeast inh -6, ALR inh 97*, HDAC3 inh 5, MC4R antagonist 8 and MC4R ag barr -2.
`COc1cc(/C=N/NS(=O)(=O)c2ccc(C)c([N+](=O)[O-])c2)cc([N+](=O)[O-])c1O` gave NALP1 yeast inh -4, ALR inh 93*, HDAC3 inh 6, MC4R antagonist -7, MC4R ag barr -2 and Yeast UUG start -22.
`Cc1noc(C)c1NC(=O)N(C)C[C@@H]1OCCCC[C@@H](C)Oc2ccc(NC(=O)NC(C)C)cc2C(=O)N([C@@H](C)CO)C[C@H]1C` gave Yeast UUG start -4.
C[C@H](CO)N1C[C@H](C)[C@H](CN(C)C(=O)NC2CCCCC2)Oc2ccc(NC(=O)Cc3ccccc3)cc2CC1=O was read as Yeast UUG start 17.
`C=CCNC(=S)N/N=C(\C)c1ccccn1` gave NALP1 yeast inh 78*, ALR inh 22, HDAC3 inh -2, MC4R antagonist -1, MC4R ag barr -3 and Yeast UUG start -49.
C/C(=N\NC(=O)CCCNc1ccc(C)cc1)c1ccccn1 was read as NALP1 yeast inh 28, ALR inh 98*, HDAC3 inh 4, MC4R antagonist 3 and MC4R ag barr 0.
Screening C[C@@H]1CN([C@H](C)CO)C(=O)c2cc(NC(=O)Nc3ccc(F)cc3)ccc2O[C@@H]1CN(C)Cc1ccc(Oc2ccccc2)cc1 returned Yeast UUG start -1.
`CCOC(=O)CNC(=O)CSc1nc(Cc2cccs2)nc2ccccc12` gave NALP1 yeast inh 9, ALR inh 79*, HDAC3 inh 3, MC4R antagonist 2, MC4R ag barr -1 and Yeast UUG start -21.
CC(C)OC(=O)CSc1nc(Cc2ccccc2)nc2ccccc12 was read as NALP1 yeast inh -3, ALR inh 86*, HDAC3 inh 15, MC4R antagonist 15 and MC4R ag barr -3.
CCOC(=O)CSc1nc(Cc2ccccc2)nc2ccccc12 was read as NALP1 yeast inh 7, ALR inh 6, HDAC3 inh 3, MC4R antagonist 0 and MC4R ag barr -4.
For COC(=O)CSc1nc(Cc2ccccc2)nc2ccccc12 the results were NALP1 yeast inh 1, ALR inh inconclusive, HDAC3 inh 6, MC4R antagonist 5 and MC4R ag barr -2.
`CNC(=O)C[C@H]1CC[C@@H]2[C@@H](COc3ccc(NC(=O)c4cscn4)cc3C(=O)N2C)O1` gave Yeast UUG start -5.
For O=S(=O)(NCCOc1ccccc1)c1ccc2ccccc2c1 the results were NALP1 yeast inh -5, ALR inh -2, HDAC3 inh -6, MC4R antagonist 1, MC4R ag barr 3 and Yeast UUG start -11.
For COc1ccc(S(=O)(=O)NCCOc2ccccc2)cc1C the results were NALP1 yeast inh 50*, ALR inh -14, HDAC3 inh 0, MC4R antagonist 6 and MC4R ag barr 1.
Screening O=C(NCC[C@@H]1CC[C@@H](NC(=O)c2cnccn2)[C@H](CO)O1)Nc1ccc(Cl)cc1 returned Yeast UUG start 22.
`CCOC(=O)c1c(NC(=O)Cn2cc([N+](=O)[O-])cn2)sc2c1CCC2` gave NALP1 yeast inh 27, ALR inh -5, HDAC3 inh -3, MC4R antagonist 10 and MC4R ag barr 9.3*.
For NC(=O)c1c(NC(=O)Cn2cc([N+](=O)[O-])cn2)sc2c1CCCC2 the results were NALP1 yeast inh -35, ALR inh -20, HDAC3 inh 3, MC4R antagonist 7 and MC4R ag barr -2.

From PubChem
